This passage reports inhibition results from PubChem BioAssay AID488796 (The Scripps Research Institute Molecular Screening Center, 2010).

By UniProt entry, the sequences of proteins in these tests, tags left out.
UniProt Q9UM07, whole entry: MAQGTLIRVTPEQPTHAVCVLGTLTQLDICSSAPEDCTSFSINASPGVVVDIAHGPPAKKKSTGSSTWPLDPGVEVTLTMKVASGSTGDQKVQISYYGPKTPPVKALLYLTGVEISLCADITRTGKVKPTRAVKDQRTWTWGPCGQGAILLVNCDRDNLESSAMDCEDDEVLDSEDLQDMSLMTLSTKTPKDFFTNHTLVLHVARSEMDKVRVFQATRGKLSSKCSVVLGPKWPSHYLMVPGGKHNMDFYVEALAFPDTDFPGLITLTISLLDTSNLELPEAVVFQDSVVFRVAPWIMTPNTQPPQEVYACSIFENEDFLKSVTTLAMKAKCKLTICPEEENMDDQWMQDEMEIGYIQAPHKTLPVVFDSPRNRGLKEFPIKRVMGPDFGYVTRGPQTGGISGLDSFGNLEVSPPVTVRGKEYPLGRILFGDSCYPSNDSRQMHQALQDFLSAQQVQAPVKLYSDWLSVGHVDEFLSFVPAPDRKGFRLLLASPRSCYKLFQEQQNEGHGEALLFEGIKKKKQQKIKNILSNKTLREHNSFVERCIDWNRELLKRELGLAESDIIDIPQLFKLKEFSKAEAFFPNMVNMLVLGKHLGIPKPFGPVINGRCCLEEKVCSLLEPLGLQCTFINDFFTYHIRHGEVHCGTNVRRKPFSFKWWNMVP

This is a selection; strong and weak results do not stand in their true shares. Calls of active or inactive are those of the source.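 How the source made its calls: active means mean inhibition across replicates above the hit cutoff set by the earlier primary screen (cut at about 15% in these data); inactive means the rest.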

In the assay the target is Protein-arginine deiminase type-4 (Homo sapiens) (UniProt Q9UM07). The assay is described as follows: protein arginine deiminase 4 blockade, retest – biochemical, fluorescence polarization, confirmation (AID 488796).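 Further: inhibitors block active-site labeling by the probe so polarization falls; 0% = PAD4 with probe and DMSO and 100% = probe without PAD4 enzyme.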 As to conditions: recombinant PAD4, RCA probe fluorescence polarization; at 6.36 µM; stronger effect = higher value. Background: Fluorescence polarisation rises when a labelled molecule tumbles more slowly, as on binding a larger partner.
On to `O=[N+]([O-])c1cc([N+](=O)[O-])c(Nc2ccccn2)c([N+](=O)[O-])c1`, for which the inhibition (as a rule, the change of the read-out against control, counted positive when it falls) was active: 33.7%.

As for `CC1=C2N=C(C=C3N=C(C(C)=C4[N-][C@@](C)([C@@H]5N=C1[C@](C)(CCC(=O)NC[C@@H](C)OP(=O)([O-])O[C@H]1[C@@H](O)[C@@H](n6cnc7cc(C)c(C)cc76)O[C@@H]1CO)[C@H]5CC(N)=O)[C@@](C)(CC(N)=O)[C@@H]4CCC(N)=O)[C@@](C)(CC(N)=O)[C@@H]3CCC(N)=O)C(C)(C)[C@@H]2CCC(N)=O.[C-]#N.[Co+3]`, the inhibition is inactive: 9.21%.
